Values quoted from earlier work, collected in US6898533B1, “Methods for predicting the biological, chemical, and physical properties of molecules from their spectral properties” (The United States of America as represented by the …, priority 2000, dated 2005).

Chains of the proteins cited; added tags and fusions are not shown.
UniProt Q62986, whole entry: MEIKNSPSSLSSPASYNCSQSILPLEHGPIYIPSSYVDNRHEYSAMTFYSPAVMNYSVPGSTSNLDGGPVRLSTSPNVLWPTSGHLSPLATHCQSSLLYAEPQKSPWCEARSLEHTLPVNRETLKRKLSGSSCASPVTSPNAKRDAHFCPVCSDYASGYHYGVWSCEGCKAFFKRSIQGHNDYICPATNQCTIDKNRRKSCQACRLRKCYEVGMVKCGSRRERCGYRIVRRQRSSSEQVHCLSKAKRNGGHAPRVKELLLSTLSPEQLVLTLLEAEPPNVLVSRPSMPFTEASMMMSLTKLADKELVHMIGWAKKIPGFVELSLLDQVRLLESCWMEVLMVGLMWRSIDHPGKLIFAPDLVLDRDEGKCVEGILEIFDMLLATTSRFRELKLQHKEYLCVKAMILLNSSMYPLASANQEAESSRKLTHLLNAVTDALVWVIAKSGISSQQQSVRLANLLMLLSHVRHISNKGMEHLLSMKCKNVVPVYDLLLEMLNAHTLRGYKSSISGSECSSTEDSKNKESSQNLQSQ

Target: beta (ERβ) estrogen receptor (Rattus norvegicus, UniProt Q62986)
Settings: log of relative binding affinity, 17-β-estradiol RBA = 100; cited from earlier work

For `COc1ccc2c(c1)CCC(c1ccccc1)=C2c1ccc(OCCN2CCCC2)cc1` [Nafoxidine], the “Log-(RBA) beta” value is listed as 1.20.
